Measured affinities in a library of Ab-14 heavy chain variants

Source: Li et al. 2023 (doi:10.1038/s41467-023-39022-2), MIT Lincoln Laboratory and A-Alpha Bio; data file from the FLAb repository.

Binding partner: SARS-CoV-2 spike HR2 peptide, sequence PDVDLGDISGINAS.

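The parent was found by panning a naive human phage display library on the peptide. This is the validation round: designs drawn from the data on random variants, tested in the same kind of assay. Group labels follow the data file (Ctrl: baseline library sampled from a position-specific scoring matrix, with some repeated check sequences; Rand: our label for a block that the file lists under HC and that is probably the random mutants of the ten best first-round binders; En: ensemble of fine-tuned language models; GP: Gaussian process model; GPLM: also part of the Gaussian process libraries; HC: hill climbing; Gen: genetic algorithm; Gibbs: Gibbs sampling; a sequence that several methods proposed may carry one label only). AlphaSeq pools MATa yeast showing the antibodies with MATalpha yeast showing the peptide. The frequency of each diploid, read from paired DNA barcodes, reflects how well the two displayed proteins bind. Read counts were normalised to the haploid input and turned into Kd by a linear fit to BCL2-family pairs of known affinity, for each replicate. Mating was done six times.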

Parent scFv Ab-14: VH joined to VL by three GGGGS repeats. Changes lie in the heavy chain CDRs alone.
VH: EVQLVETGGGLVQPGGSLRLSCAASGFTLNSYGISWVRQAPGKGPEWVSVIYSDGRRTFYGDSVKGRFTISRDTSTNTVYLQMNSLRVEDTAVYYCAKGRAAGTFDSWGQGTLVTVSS
VL: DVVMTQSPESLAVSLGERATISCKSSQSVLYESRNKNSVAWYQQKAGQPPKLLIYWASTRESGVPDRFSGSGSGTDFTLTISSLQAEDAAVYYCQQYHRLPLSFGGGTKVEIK

The parent's heavy chain CDRs are GFTLNSYGIS, VIYSDGRRTFYGDSVK, GRAAGTFDS; each variant's own CDRs replace them letter for letter.
Numbers give log10(Kd / nM), so 0 is 1 nM and 3 is 1 µM. Smaller is tighter.
Averages over replicates are reported, and they cover detected replicates only.
"not detected" means that the variant was in the library but no mating with the target was seen in any replicate; the authors take this as a sign of poor binding, and no number exists.

{"CDR-H1": "GFWLNMYGIS", "CDR-H2": "VIYSDGRRTFYGDSVK", "CDR-H3": "GRQAGTFDS", "group": "GP_Gibbs", "log10 Kd (nM), mean": "1.38", "replicates with signal": "1/6", "signal with controls": "0/18"}
{"CDR-H1": "GFDLNEYGIS", "CDR-H2": "VIYADGRRTAYTDSVK", "CDR-H3": "GHNAGTFDL", "group": "En_HC", "log10 Kd (nM), mean": "-0.73", "replicates with signal": "6/6", "signal with controls": "1/18"}
{"CDR-H1": "GFDLNEYGIS", "CDR-H2": "VIYADGVRTAYSDSVK", "CDR-H3": "GSNAGTFDM", "group": "En_Gen", "log10 Kd (nM), mean": "-0.17", "replicates with signal": "6/6", "signal with controls": "0/18"}
{"CDR-H1": "GENLSSYGIS", "CDR-H2": "VIYSDGRRTFYGDNVK", "CDR-H3": "GRAAGTFDS", "group": "Ctrl", "log10 Kd (nM), mean": "2.19", "replicates with signal": "1/6", "signal with controls": "1/18"}
{"CDR-H1": "GFDLNEYGIS", "CDR-H2": "VIYADGMRTFYTDSVK", "CDR-H3": "GEEAGTFDS", "group": "En_HC", "log10 Kd (nM), mean": "0.17", "replicates with signal": "6/6", "signal with controls": "0/18"}
{"CDR-H1": "GFDLNEYGIS", "CDR-H2": "VIYADGMRTAYQDSVK", "CDR-H3": "GENAGTFDV", "group": "En_Gen", "log10 Kd (nM), mean": "-0.36", "replicates with signal": "6/6", "signal with controls": "0/18"}
{"CDR-H1": "GFDLNEYGIS", "CDR-H2": "VIYADGRRKFYADDVK", "CDR-H3": "GENAGTFDV", "group": "En_HC", "log10 Kd (nM), mean": "-0.83", "replicates with signal": "6/6", "signal with controls": "0/18"}
{"CDR-H1": "GFDLNEYGIS", "CDR-H2": "VIYADGMRTVYADSVK", "CDR-H3": "GQNAGTFDQ", "group": "En_HC", "log10 Kd (nM), mean": "not detected", "replicates with signal": "0/6", "signal with controls": "0/18"}
{"CDR-H1": "GFTLNDYGIS", "CDR-H2": "VIYSDGRRTFYGDSVK", "CDR-H3": "GNAAVTFPS", "group": "Ctrl", "log10 Kd (nM), mean": "0.58", "replicates with signal": "1/6", "signal with controls": "0/18"}
{"CDR-H1": "GFDLNEYGIS", "CDR-H2": "VIYADGRRTAYQDSVK", "CDR-H3": "GTNAGTFDQ", "group": "En_HC", "log10 Kd (nM), mean": "-0.35", "replicates with signal": "6/6", "signal with controls": "0/18"}
{"CDR-H1": "GFDLDQYGIS", "CDR-H2": "VIYADGKRVAYTDDVK", "CDR-H3": "GVQGGMALV", "group": "En_Gibbs", "log10 Kd (nM), mean": "not detected", "replicates with signal": "0/6", "signal with controls": "1/18"}
{"CDR-H1": "GFDLNSYGIS", "CDR-H2": "VIYSDGRRTFYVDSVK", "CDR-H3": "GNAAGTFDS", "group": "GPLM_Gibbs", "log10 Kd (nM), mean": "0.10", "replicates with signal": "6/6", "signal with controls": "0/18"}
{"CDR-H1": "GFTLNQRGIS", "CDR-H2": "VIYSDGRRTCYSDSVK", "CDR-H3": "GRAAGFFDS", "group": "Rand", "log10 Kd (nM), mean": "0.81", "replicates with signal": "1/6", "signal with controls": "0/18"}
{"CDR-H1": "GFNLDEYGIS", "CDR-H2": "VIYADGRRTFYADSVK", "CDR-H3": "GSHAGTFDL", "group": "En_HC", "log10 Kd (nM), mean": "-0.83", "replicates with signal": "6/6", "signal with controls": "0/18"}
{"CDR-H1": "GFNLEEYGIS", "CDR-H2": "VIYADGVRASYAENVK", "CDR-H3": "AGGNVIAIG", "group": "En_Gibbs", "log10 Kd (nM), mean": "not detected", "replicates with signal": "0/6", "signal with controls": "0/18"}
{"CDR-H1": "GATLDSYGIS", "CDR-H2": "VIYSDGRRTFYGDSVK", "CDR-H3": "GRVAGTFDV", "group": "Ctrl", "log10 Kd (nM), mean": "1.49", "replicates with signal": "4/6", "signal with controls": "0/18"}
{"CDR-H1": "GYNIDEYGIS", "CDR-H2": "VIYADGQRTAYQNSVK", "CDR-H3": "GEQAGIMMY", "group": "En_Gibbs", "log10 Kd (nM), mean": "not detected", "replicates with signal": "0/6", "signal with controls": "0/18"}
{"CDR-H1": "GFSLNSYGIS", "CDR-H2": "VIYSDGRRTFYKDSVK", "CDR-H3": "GWAAGTFDS", "group": "GPLM_Gen", "log10 Kd (nM), mean": "0.54", "replicates with signal": "3/6", "signal with controls": "0/18"}
{"CDR-H1": "GFPLDSYGIF", "CDR-H2": "VIYSDGRNTFLGDSVK", "CDR-H3": "GRAAGTALS", "group": "Rand", "log10 Kd (nM), mean": "2.39", "replicates with signal": "2/6", "signal with controls": "0/18"}

The last 2 entries again:

{"CDR-H1": "GFSLNSYGIS", "CDR-H2": "VIYSDGRRTFYKDSVK", "CDR-H3": "GWAAGTFDS", "group": "GPLM_Gen", "log10 Kd (nM), mean": "0.54", "replicates with signal": "3/6", "signal with controls": "0/18"}
{"CDR-H1": "GFPLDSYGIF", "CDR-H2": "VIYSDGRNTFLGDSVK", "CDR-H3": "GRAAGTALS", "group": "Rand", "log10 Kd (nM), mean": "2.39", "replicates with signal": "2/6", "signal with controls": "0/18"}

The authors averaged sequences with at least three values out of six and counted those with two or fewer as poor binders.
The parent sequence was in this pool as ten entries: three were never detected, three once, and four in most replicates, with averages from 0.34 to 2.37.
Empty control strains, which show no peptide, gave a signal in 1% of pairings with all heavy chain designs; the median was 2.08 and 95% of these signals were weaker than 0.84. No background was subtracted. For each scFv, signals with the empty controls are counted beside the result.
The range of this assay differs from that of the first round, and the authors advise against merging the two.